Experimental data from patent US20050032688A1, “Use of angiotensin II fragments and analogs thereof in tissue repair” (University of Southern California, priority 1993, published 2005).

Experiments:
[1] = test system: baroreceptor-heart-reflex; conditions: in vivo; cited from earlier work
[2] = test system: rat adrenal medulla; conditions: cited from earlier work
[3] = test system: porcine coronary artery rings; conditions: perhaps through nitric oxide; cited from earlier work
[4] = test system: neurons in the paraventricular nucleus; conditions: cited from earlier work
[5] = test system: full thickness dermal wounds; assay: Wound closure in full thickness dermal wounds, Hydron vehicle (Example 1); assay type: in vivo, Male Sprague Dawley rats; conditions: days 2, 5, 6, 8 and 10, FIG. 1
Description: Male Sprague Dawley rats, 12 weeks old, were obtained from Simonsen Laboratories, Gilroy, Calif. On the day of surgery, the rats received intramuscular ketamine/rompum anesthesia prior to preparation for surgery. The rats were shaved and scrubbed with betadine. Four 2×2 cm full thickness dermal wounds were created on the dorsal surface of the rat. Following excision of the skin, the size of wound was outlined on a glass slide and the medicament was administered in 100 μl Hydron solution comprising 10% Hydron, 1% polyethylene glycol (MW 400) and 60% ethanol. The test materials were administered in a randomized fashion; angiotensin III was evaluated at 3 and 10 μg/wound. Controls were treated with vehicle only.
After administration of the materials, the rats were bandaged and allowed to recover from anesthesia. At days 2, 5, 6, 8 and 10, the area of the skin wounds were measured under methoxyflurane anesthesia (commercially available as Metofane from Pittman-Moore, Mundelein, Ill.). The area of the wound was determined by: (1) tracing the wound shape onto graph paper (1×1 mm squares); (2) cutting out the shape; (3) weighing the paper and comparing the weight with a 2×2 cm paper cutout; and (4) counting the number of squares.

## Arg-Val-Tyr-Ile-His-Pro-Phe (RVYIHPF; printed: Arg-Val-Tyr-Ile-His-Pro-Phe) [AIII]
[1]
  sensitivity of the baroreceptor-heart-reflex: impairs
[2]
  evoked neuronal norepinephrine release: biphasic effect
  spontaneous neuronal norepinephrine release: biphasic effect
[3]
  dilation of coronary artery rings: not observed
[4]
  excitation of neurons: excited
[5]; 3 μg/wound in 100 μl Hydron solution
  wound closure relative to vehicle-treated control: substantially accelerated
[5]; 10 μg/wound in 100 μl Hydron solution
  wound closure relative to vehicle-treated control: substantially accelerated
